Measurements from ChEMBL document CHEMBL3232832, “Derivatives of dibenzothiophene for positron emission tomography imaging of α7-nicotinic acetylcholine receptors” (J Med Chem, 2013).

Amino acid sequences for entries named in this document (tags omitted). Residues count along the entry.
UniProt Q05941, 23-502 limits assumed: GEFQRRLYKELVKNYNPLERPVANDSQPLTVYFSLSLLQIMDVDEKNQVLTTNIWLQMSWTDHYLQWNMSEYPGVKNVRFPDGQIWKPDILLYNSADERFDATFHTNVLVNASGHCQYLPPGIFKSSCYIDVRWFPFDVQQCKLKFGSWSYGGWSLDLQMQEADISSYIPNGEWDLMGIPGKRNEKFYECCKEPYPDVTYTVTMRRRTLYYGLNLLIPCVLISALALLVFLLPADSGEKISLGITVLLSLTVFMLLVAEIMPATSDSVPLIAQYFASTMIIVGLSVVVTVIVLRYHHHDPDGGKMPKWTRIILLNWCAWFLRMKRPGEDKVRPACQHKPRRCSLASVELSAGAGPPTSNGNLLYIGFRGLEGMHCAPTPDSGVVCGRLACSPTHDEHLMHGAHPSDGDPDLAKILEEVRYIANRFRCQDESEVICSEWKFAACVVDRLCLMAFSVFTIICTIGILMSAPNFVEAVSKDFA

Assays:
[1] = Ratio of drug uptake in cortex to cerebellum in mouse; format: ADME, organism-based; details: in vivo
[2] = biological target: Neuronal acetylcholine receptor subunit alpha-7 (Rattus norvegicus, UniProt Q05941); assay: Binding affinity to rat brain alpha7 nAChR

## [11CH3]Nc1cccc(C(=O)O[C@H]2CN3CCC2CC3)c1
[1]
  Ratio: 0.4
[2]
  Ki: 40.6 nM
